Data reported in patent US20030021772A1, “Method for treating effects of sleep deprivation and jet lag with NADPH and NADPH” (priority 2001, published 2003).

Test: Stability at acidic pH
Type: physicochemical
Conditions: pHs below 7, as in the human stomach
From the text: Suitable oral forms of NADH and NADPH which can be used in the practice of the present invention are described in my U.S. Pat. No. 5,332,727, the disclosure of which is incorporated herein by reference. Both NADH and NADPH are very unstable at pHs below 7 which prevail within the confines of the human stomach. Therefore, when used in oral form, these substances must be coated with an acid-stable protective film so that they can survive the stomach environment for subsequent absorption by the intestine. Suitable acid-stable coatings are known in the art and can be applied by a conventional coating process after the active ingredients are formed into a tablet or capsule. Examples of suitable coatings are: cellulose acetate phthalate; polyvinylacetate phthalate; hydroxyl-propyl-methyl cellulose phthalate; methacryllic acid copolymers; fat-wax; shellac; zein; aqua-coating; and surerelease. Another possibility for the coating is a solution of a phthalate and a lack dry substance in isopropanol. An example of a suitable lack dry substance is sold under the name EUDRAGIT™ by Rohm Pharma. Alternatively, a protein coating in an aqueous medium may be applied. However, a sugar-coating should not be used because it will destabilize NADH.

Q: For “nicotinamide-adenine-dinucleotide phosphate [NADPH]”, which “stability at pHs below 7” value is on record?
A: very unstable
